## Ab-14 heavy chain CDR variants: yeast mating affinities

Target: peptide PDVDLGDISGINAS, taken from heptad repeat 2 (HR2) of SARS-CoV-2 spike.

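These sequences belong to a second round, designed from the earlier measurements on random variants of the parent. Several design methods are mixed in this list. In AlphaSeq, yeast of one mating type display the scFv and yeast of the other type display the target. Mating (16 h, 30 °C) was followed by selection of diploids and sequencing of their barcodes. Scores were corrected for input abundance and mapped to Kd with protein pairs of known affinity run in the same pool. Each pool was mated in six replicate cultures.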

The variants keep the light chain, the linker and the frameworks of Ab-14 (scFv order VH, a (GGGGS)3 linker, VL).
VH: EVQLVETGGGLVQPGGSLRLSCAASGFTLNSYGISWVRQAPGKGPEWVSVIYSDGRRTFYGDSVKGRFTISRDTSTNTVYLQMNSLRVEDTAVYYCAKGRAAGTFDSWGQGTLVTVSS
VL: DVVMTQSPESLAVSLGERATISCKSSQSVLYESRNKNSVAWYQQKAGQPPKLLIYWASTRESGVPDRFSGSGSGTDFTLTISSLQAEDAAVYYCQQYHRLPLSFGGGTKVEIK

Each variant is given by its three heavy chain CDRs, as the data file delimits them; those of the parent are GFTLNSYGIS, VIYSDGRRTFYGDSVK, GRAAGTFDS.
This list holds designs with more than six substitutions.
Each Kd is an estimate from the mating assay, the geometric mean of the replicates in which the pair was seen; lower is stronger.
Where no diploid with the target was found in any replicate, the entry reads "nd": below detection, most likely a poor binder, though not proof of it.
The parent sequence was in this pool as ten entries: three were never detected, three once, and four in most replicates, with averages from 2.2 nM to 240 nM.
The range of this assay differs from that of the first round, and the authors advise against merging the two.
Nonspecific signal, from three strains lacking the peptide, appeared in 1% of pairings of all heavy chain designs, centred on 120 nM (5% of these signals below 7.0 nM); values are not corrected for it.
The authors' rule: three or more of the six replicates give a measured affinity, fewer mean a poor binder.

| CDR-H1 | CDR-H2 | CDR-H3 | Kd | seen in |
|---|---|---|---|---|
| GFDINEYGIS | VIYADGRRTFYSDSVK | GGNAGTFDV | 1.4 µM | 3 of 6 |
| GFSLGEYGIS | VIYADGERTNYVSNFK | GVHAGTFVL | nd | 0 of 6 |
| GFDLDEYGIS | VIYADGMRTVYADDVK | GENAGTFDV | 60 pM | 6 of 6 |
| GFDLNEYGIS | VIYADGQRTAYADDVK | GSNAGTFDV | 350 pM | 6 of 6 |
| GFDLNEYGIS | VIYADGQRTSYADSVK | GQLAGTFDQ | 350 pM | 6 of 6 |
| GFSLDEYGIS | VIYADGNRQAYIDAVK | GNYGGDFNE | nd | 0 of 6 |
| GFDLNEYGIS | VIYADGVRTAYSDSVK | GEAAGTFDL | 490 pM | 6 of 6 |
| GFDLESYGIS | VIYADGRRTFYSDSVK | GTNAGTFDI | 460 pM | 6 of 6 |
| GFDLNEYGIS | VIYADGVRTAYTDSVK | GGNAGTFDV | 270 pM | 6 of 6 |
| GFDLNEYGIS | VIYADGRRTAYIDSVK | GDAAGTFDV | nd | 0 of 6 |
| GFDLNEYGIS | VIYADGRRTQYIDSVK | GEQAGTFDA | nd | 0 of 6 |
| GFDLNEYGIS | VIYADGVRTAYADNVK | GNVAGTFDT | 330 pM | 6 of 6 |
| GFDLNEYGIS | VIYADGSRTAYIDSVK | GNNAGTFDV | 820 pM | 6 of 6 |
| GFDLNEYGIS | VIYADGMRTAYADSVK | GEHAGTFDI | 80 pM | 6 of 6 |
| GFQLDEQGIS | VIYADGVRCSYADKVK | GANSGVIDV | nd | 0 of 6 |
| GFDLNEYGIS | VIYADGRRTAYADNVK | GNQAGTFDV | 430 pM | 6 of 6 |
| GFDLNEYGIS | VIYADGHRTFYSDSVK | GQNAGTFDA | 280 pM | 6 of 6 |
| GFDLDEYGIS | VIYADGMRTAYSDSVK | GENAGTFDA | 710 pM | 6 of 6 |
| GFDFQEYGIS | VIYADGKRTAYANSVK | GGSNALTTV | nd | 0 of 6 |
| GFDLNEYGIS | VIYADGVRKAYADSVK | GTNAGTFDV | 2.1 nM | 6 of 6 |
| GFDLDEMGIS | VIYADGRRTAYSNAFK | GNLQYGFMV | nd | 0 of 6 |
| GFDLNEYGIS | VIYADGRRTFYADSVK | GNTAGTFDL | 160 pM | 6 of 6 |
| GFDLNEYGIS | VIYADGRRTFYIDSVK | GEQAGTFNV | 380 pM | 6 of 6 |
| GFDLNEYGIS | VIYADGKRTFYADSVK | GENAGTFDQ | 570 pM | 6 of 6 |
| GFDLNEYGIS | VIYADGSRTFYSDSVK | GETAGTFDV | 890 pM | 6 of 6 |
| GFDLNEQGIS | VIYADGVRTEYQNRVK | GEIDGLFTF | nd | 0 of 6 |
| GFDLNEYGIS | VIYADGVRTFYVDSVK | GETAGTFDL | 3.6 nM | 6 of 6 |
| GKKLDEYGIS | VIYADGKRNFYSNSVK | GGMAGGLTV | nd | 0 of 6 |
| GFDLNEYGIS | VIYADGVRTAYTDSVK | GNVAGTFDL | 1.1 nM | 6 of 6 |
| GFDLNEYGIS | VIYADGQRKAYADSVK | GENAGTFDI | 130 pM | 6 of 6 |
| GFDLNEYGIS | VIYADGMRTAYADKVK | GEVAGTFDT | 600 pM | 6 of 6 |
| GFDLNEYGIS | VIYADGVRTAYADSVK | GNEAGTFDQ | 2.0 nM | 6 of 6 |
| GFDLEKQGIS | VIYADGSRSAYAQDVK | GGHAGGFHV | nd | 0 of 6 |
| GFDINEYGIS | VMYADGSRSVYQDNVK | GFQGGTLDM | 110 nM | 1 of 6 |
| GFDLNEYGIS | VIYADGKRTAYADDVK | GKNAGTFDV | 270 pM | 6 of 6 |
| GFDIQDYGIS | VIYADGSRTAYVNSVK | GEWGATLDV | nd | 0 of 6 |
| GFDLNEYGIS | VIYADGMRTAYANSVK | GEVAGTFDT | 5.9 nM | 6 of 6 |
| GFDIQEYGIS | VIYADGNRSAYIDNVK | GDTGSSFLE | nd | 0 of 6 |
| GFDLEDYGIS | VIYADGVRTAYADSVK | GEVAGTFDV | 2.1 nM | 6 of 6 |
| GFDLNEYGIS | VIYADGKRTAYADSVK | GGNAGTFDL | 370 pM | 6 of 6 |
| GFDLLEYGIS | VIYADGMRVAYAPDVK | GQEGQLVVD | nd | 0 of 6 |
| GFDLNEYGIS | VIYADGRRTFYSDSVK | GEAGGTFDI | 160 pM | 6 of 6 |
| GYSLDDYGIS | VIYADGKRKSYAEDVK | GNNGGSFMN | nd | 0 of 6 |
| GFDLTEYGIS | VIYADGRRTQYQDAVK | GLNGDMLVV | nd | 0 of 6 |
| GFSLDEYGIS | VIYADGTRTFVATSVK | GGLVAYFDQ | nd | 0 of 6 |
| GFDLDEYGIS | VIYADGMRTAYSDDVK | GNVAGTFDI | 340 pM | 6 of 6 |
| GFDLNEYGIS | VIYADGVRTAYADSVK | GNNAGTFDT | 640 pM | 6 of 6 |
| GFDLNEYGIS | VIYADGRRTAYADSVK | GEVAGTFVQ | 1.2 nM | 6 of 6 |
| GFDLEEYGIS | VIYADGIRVSYAQNVK | GVYSGTHYV | 46 nM | 2 of 6 |
| GFDLEKYGIS | VIYADGIRMSYADNVK | GVYSGTAYV | nd | 0 of 6 |
| GFNLNEYGIS | VIYADGQRTKYIDDVK | GTNRVKGMG | nd | 0 of 6 |
| GFELQEFGIS | VIYADGIRTNYSQNVK | GTLAGTFTL | 45 nM | 5 of 6 |
| GQSLDDYGIS | VIYADGQRKAAVDEVK | GENAGTFDI | nd | 0 of 6 |
| GFDLNEYGIS | VIYADGMRTAYTDSVK | GNLAGTFDV | 1.6 nM | 5 of 6 |
| GFDLDEYGIS | VIYADGVRTSYADSVK | GENAGTFDV | 8.5 nM | 6 of 6 |
| GFDLNEYGIS | VIYADGRRTAYSDSVK | GEAAGFFDE | nd | 0 of 6 |
| GQDLAEYGIS | VIYADGKRTMYANDVK | GHNGGQGKT | nd | 0 of 6 |
| GFNLDEYGIS | VIYADGMRTFYADSVK | GNVAGTFDV | 390 pM | 6 of 6 |
| GFDLNEYGIS | VIYADGVRTSYADSVK | GNQAGTFDI | 430 pM | 6 of 6 |
| GFDLNEYGIS | VIYADGKRTFYSDSVK | GNNAGTFDV | 640 pM | 6 of 6 |
| GFDIEEYGIS | VIYADGYRQAYKQKVK | GQIAGGQFD | nd | 0 of 6 |
| GQDINEYGIS | VIYADGFRLAYVENVK | GENAGSVEV | nd | 0 of 6 |
| GFNLDEYGIS | VIYADGRRTAYSDNVK | GEAAGTFDI | 77 pM | 6 of 6 |
| GYDIEQYGIS | VIYADGIRTVYDDKVK | GHNGDTFYV | nd | 0 of 6 |
| GFDLNEYGIS | VIYADGRRTFYSDSVK | GQTAGTFDI | 540 pM | 6 of 6 |
| GFDLNEYGIS | VIYADGSRTAYADDVK | GNVAGTFDV | 530 pM | 5 of 6 |

Extract of 11 entries:

| CDR-H1 | CDR-H2 | CDR-H3 | Kd | seen in |
|---|---|---|---|---|
| GFDLNEYGIS | VIYADGRRTQYIDSVK | GEQAGTFDA | nd | 0 of 6 |
| GFDLNEYGIS | VIYADGRRTAYSDSVK | GEAAGFFDE | nd | 0 of 6 |
| GKKLDEYGIS | VIYADGKRNFYSNSVK | GGMAGGLTV | nd | 0 of 6 |
| GFSLDEYGIS | VIYADGNRQAYIDAVK | GNYGGDFNE | nd | 0 of 6 |
| GFDLNEYGIS | VIYADGSRTFYSDSVK | GETAGTFDV | 890 pM | 6 of 6 |
| GFDLNEYGIS | VIYADGQRTSYADSVK | GQLAGTFDQ | 350 pM | 6 of 6 |
| GFNLNEYGIS | VIYADGQRTKYIDDVK | GTNRVKGMG | nd | 0 of 6 |
| GFDLNEYGIS | VIYADGVRTAYADSVK | GNEAGTFDQ | 2.0 nM | 6 of 6 |
| GFDLNEYGIS | VIYADGRRTFYSDSVK | GQTAGTFDI | 540 pM | 6 of 6 |
| GFDLNEYGIS | VIYADGVRKAYADSVK | GTNAGTFDV | 2.1 nM | 6 of 6 |
| GFDLNEYGIS | VIYADGKRTAYADDVK | GKNAGTFDV | 270 pM | 6 of 6 |

The measurements come from Li et al. 2023 (doi:10.1038/s41467-023-39022-2) through the FLAb antibody collection.